{"source": "patent US20050123936A1", "about": "“Method, composition, and kit to design, evaluate, and/or test compounds that modulate regulatory factor binding to nucleic acids” (priority 2003, published 2005)", "key": {"[1]": {"target": "AGCTCA mismatch site on 250-bp EcoRI/PvuII restriction fragment from plasmid pDEH9", "assay": "Quantitative DNase I footprint titration, mismatch site AGCTCA", "procedure": "(§1) Quantitative DNaseI footprinting can be used to determine the equilibrium association constants for binding to match and mismatch sites. Footprinting experiments are generally performed on 3′- and/or 5′-^32P end restriction fragments derived from plasmids. 3′-shifted cleavage patterns are consistent with location of the polyamide in the minor groove. Typical reaction conditions are: 10 mM Tris-HCl, 10 mM KCl, 10 mM MgCl2, 5 mM CaCl2, pH 7.0, and 22° C. See Brenowitz et al. (1986). Methods Enzymol. 130:132-181; Fox & Waring (1984) Nucleic Acids Res. 12:9271-9285; and Brenowitz et al. (1986) Proc. Natl. Acad. Sci. U.S.A. 83: 8462-8466.\n(§2) DNase I Footprinting: Dissociation constants for the DNA binding of compounds 1, 2 and 3 were obtained following published protocols. All reactions were carried out in 400 μL total volume employing 20 kcpm of a 3′-radiolabelled 250-bp restriction fragment from the plasmid pDEH9 (FIG. 1a) (SEQ. ID. NO: 4). […]\n(§3) FIGS. 1b, 1c, and 1d are quantitative DNAse I footprint titration experiments for compounds 1, 2 and 3 on the 3′^−32 P-labeled 250-bp EcoRI/PvuII restriction fragment from the plasmid pDEH9. […]\n(§4) The DNA-binding properties of the compounds 1-3 were investigated by quantitative DNase 1 footprinting assays. […]"}, "[2]": {"tested_on": "TGGGCA mismatch site on 250-bp EcoRI/PvuII restriction fragment from plasmid pDEH9", "assay": "Quantitative DNase I footprint titration, mismatch site TGGGCA", "procedure": "as §1\nDNase I Footprinting: Dissociation constants for the DNA binding of compounds 1, 2 and 3 were obtained following published protocols. All reactions were carried out in 400 μL total volume employing 20 kcpm of a 3′-radiolabelled 250-bp restriction fragment from the plasmid pDEH9 (FIG. 1a) (SEQ. ID. NO: 4). No carrier DNA was used in the equilibration, and the solutions were allowed to equilibrate for 12 h at 22° C. in TKMC buffer (10 mM TRIS, 10 mM KCl, […], 5 mM CaCl2 pH 7.0) prior to the DNase I digestion. Reaction products (8 kcpm) were resolved on denaturing 8% polyacrylamide sequencing gels run at 55 W.\nFIGS. 1b, 1c, and 1d are quantitative DNAse I footprint titration experiments for compounds 1, 2 and 3 on the 3′^−32 P-labeled 250-bp EcoRI/PvuII restriction fragment from the plasmid pDEH9. Lane 1: Intact DNA. Lane 2: A-reaction. Lane 3: G-reaction. Lane 4: DNAse 1 standard.\nThe DNA-binding properties of the compounds 1-3 were investigated by quantitative DNase 1 footprinting assays. The equilibrium binding constants of each of the compounds for a matched versus three single base pair mismatch sites is compiled in Table 1. The lower strand sequence is shown in the header. Mismatched base pairs are underlined. The residue under the YPWM peptide is in bold. Relative specificities are given in square brackets."}, "[3]": {"target": "TGGTCA matched site on 250-bp EcoRI/PvuII restriction fragment from plasmid pDEH9", "assay": "Quantitative DNase I footprint titration, matched site", "settings": "read-out: Equilibrium Dissociation Constants Kd, TGGTCA, 12 h at 22° C., TKMC buffer pH 7.0", "procedure": "as §1, §2, §3, §4"}, "[4]": {"target": "extradenticle (Exd) protein (residues 238-324) (Drosophila melanogaster, UniProt P40427)", "assay": "EMSA: recruitment of Exd to its cognate DNA site by polyamides 1-3", "settings": "saturating 50 nM compound; Exd 0-100 nM", "source_text": "Protein expression: Drosophila extradenticle (Exd) protein comprising the homeodomain and the extended fourth helix (residues 238-324), as well as ultrabithorax (Ubx) protein homeodomain (residues 233-313 of the Ubx isoform IVa) were expressed and purified after Passner & Aggarwal. The purified proteins Exd and Ubx were used for EMSA studies as described below.\nFor the templates, the DNA oligonucleotides depicted in FIGS. 2a, 2b, 2c, and 2d were used, SEQ. ID NOS: 5, 6, 7, and 8, respectively. The DNA upper strand was annealed with the respective matching lower strand and both strands were 5′-labeled with γ-^32P-ATP and polynucleotide kinase, using standard procedures.\nGel-shift experiments: The master mix contained 50% BSA/50% glycerol, reaction buffer (150 mM potassium glutamate, 50 mM HEPES pH 7.0, 1 mM DTT, and 5′-end labeled DNA (^32P) The final concentrations in the samples were 100 ng/μL BSA and 10% glycerol. Polyamides were kept in subdued lighting whenever possible. Upon addition of the polyamide to 1 pM DNA, the samples were incubated at 25 °C. for 30 minutes in a 20 μL reaction. Next, Exd was added to the samples and incubated for 1 hour at 4° C. A 9% acrylamide/3% glycerol gel was pre-run for 15 min prior to loading. In each lane 15 μL of a 20 μL reaction were loaded while the gel was running to prevent the samples from being diluted. […]"}, "[5]": {"target": "Exd (Drosophila melanogaster, UniProt P40427)", "assay": "Example 7 EMSA: recruitment of Exd by linker compounds", "format": "binding", "settings": "50 nM conjugate pre-incubated with target DNA; data not shown"}, "[6]": {"target": "TGGCCA mismatch site on 250-bp EcoRI/PvuII restriction fragment from plasmid pDEH9", "assay": "Quantitative DNase I footprint titration, mismatch site TGGCCA", "procedure": "as §1, §2, §3, §4"}, "[7]": {"settings": "relative to matched site TGGTCA"}}, "data": [{"smiles": "CN(C)CCCNC(=O)CCNC(=O)c1cc(NC(=O)c2cc(NC(=O)c3cc(NC(=O)c4nc(NC(=O)CCCNC(=O)c5cc(NC(=O)c6cc(NC(=O)c7nc(NC(=O)c8nccn8C)cn7C)cn6CCCN)cn5C)cn4C)cn3C)cn2C)cn1C", "values": [{"measurement": "Kd", "setting": "[1]; read-out: Equilibrium Dissociation Constants Kd, AGCTCA, single base pair mismatch site, 22° C., TKMC buffer", "result": 3.1, "unit": "nM"}, {"measurement": "Relative specificity (square brackets), AGCTCA", "setting": "[1]; [7]", "result": 65}, {"measurement": "ability to discriminate between the CG and the GC mismatch base pair", "setting": "[2]; TGGCCA versus TGGGCA sites", "result": "a property not shown by the parent 1"}, {"measurement": "Kd", "setting": "[2]; read-out: Equilibrium Dissociation Constants Kd, TGGGCA, single base pair mismatch site, 22° C., TKMC buffer", "result": 0.76, "unit": "nM"}, {"measurement": "Relative specificity (square brackets), TGGGCA", "setting": "[2]; [7]", "result": 16}, {"measurement": "Kd", "setting": "[3]", "result": 0.048, "unit": "nM"}, {"measurement": "ability to recruit Exd to its cognate DNA site (Exd binding)", "setting": "[4]", "result": "Neither compound 3 nor 1 showed any ability to recruit Exd"}, {"measurement": "ability to stabilize Exd binding to the adjacent cognate DNA site (TGAT)", "setting": "[5]", "result": "Neither the parent polyamide lacking the YPWM hook, nor the polyamide bearing an altered hook (FYPAAK) (SEQ. ID. NO: 14) was able to stabilize Exd binding"}, {"measurement": "Kd", "setting": "[6]; read-out: Equilibrium Dissociation Constants Kd, TGGCCA, single base pair mismatch site, 22° C., TKMC buffer", "result": 0.97, "unit": "nM"}, {"measurement": "Relative specificity (square brackets), TGGCCA", "setting": "[6]; [7]", "result": 20}]}]}
